Source: US8158643B2, “Substituted diaza-spiro-pyridinone derivatives for use in MCH-1 mediated diseases” (Janssen Pharmaceutica N.V., priority 2006, dated 2012)

Chains of the proteins cited; added tags and fusions are not shown.
UniProt Q99705, whole entry: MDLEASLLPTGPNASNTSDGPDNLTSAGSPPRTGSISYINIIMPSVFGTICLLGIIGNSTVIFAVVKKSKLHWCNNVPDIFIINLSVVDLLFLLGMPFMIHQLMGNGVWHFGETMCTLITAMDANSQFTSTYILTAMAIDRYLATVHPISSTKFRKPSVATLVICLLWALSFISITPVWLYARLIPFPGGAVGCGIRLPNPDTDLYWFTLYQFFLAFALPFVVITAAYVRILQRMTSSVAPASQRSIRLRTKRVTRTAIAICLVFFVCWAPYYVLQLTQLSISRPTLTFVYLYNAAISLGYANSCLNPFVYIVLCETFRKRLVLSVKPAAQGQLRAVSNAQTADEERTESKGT

Target: human MCH-1 receptor (Homo sapiens, UniProt Q99705)
Test: Ca2+ mobilization experiment for the MCH-1 receptor (FLIPR), inhibition of MCH-induced Ca2+ response
Conditions: CHO cells stably expressing human MCH-1 receptor, submaximal MCH concentration

Compound	MCH-1 pIC50
O=c1cc(OCc2ccccc2)ccn1-c1ccc(N2CC3(CCNCC3)C2)nc1	7.2
O=c1cc(OCc2ccc(Cl)cc2)ccn1-c1ccc(N2CC3(CCNCC3)C2)cc1	7.6
